Measured values published in US9176117B2, “Macrophage hazardous material detection” (dated 2015).

Assays:
[1] = tested on: nitric oxide synthase (NOS) activity in Sentinel Cells; test: Nitric oxide / nitric oxide synthase activity in Sentinel Cells (DAF-FM diacetate fluorescence); conditions: RDX 50 nm in solution
[2] = tested on: Phospholipase A2 (PLA2) activity in Sentinel Cells; test: Phospholipase A2 activity in Sentinel Cells (PED6 cleavage fluorescence); conditions: PETN at 50 nm in solution; FIG. 3A

Row | SMILES | time after exposure to marked increase in cytoplasmic NO levels [1] | cytoplasmic NO levels ([1]; FIG. 2D) | phospholipase A2 activity [2]
1 | O=[N+]([O-])N1CN([N+](=O)[O-])CN([N+](=O)[O-])C1 | ≤ 10 min | marked increase | –
2 | O=[N+]([O-])OCC(CO[N+](=O)[O-])(CO[N+](=O)[O-])CO[N+](=O)[O-] | – | – | rapid increase

Only a part of the results on these compounds is given; other tests are left out.
